Results on 1 compound are retold here after patent publication US11306078B2.

Amino acid sequences for entries named in this document (tags omitted).
UniProt P25106, whole entry: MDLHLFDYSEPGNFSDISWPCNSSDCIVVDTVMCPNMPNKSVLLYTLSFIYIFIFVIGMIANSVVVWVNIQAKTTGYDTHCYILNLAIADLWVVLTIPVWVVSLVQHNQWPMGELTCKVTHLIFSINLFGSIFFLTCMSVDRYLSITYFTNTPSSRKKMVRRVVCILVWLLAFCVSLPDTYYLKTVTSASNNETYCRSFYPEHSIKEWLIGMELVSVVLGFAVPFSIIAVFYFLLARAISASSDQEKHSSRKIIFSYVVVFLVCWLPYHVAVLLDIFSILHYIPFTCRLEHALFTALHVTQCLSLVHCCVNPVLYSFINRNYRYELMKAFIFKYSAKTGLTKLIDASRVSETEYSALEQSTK

This experiment has as its target human chemokine receptor CXCR7 (Homo sapiens (Human), UniProt P25106). Briefly: Tango CXCR7-bla U2OS beta-arrestin recruitment assay (beta-lactamase reporter, FRET), antagonism of CXCL12/SDF1-α.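 Also: compounds preincubated 15 min before CXCL12 addition, then 22 h at 37 °C, FRET emission ratio read with CCF4-AM substrate after 2 h.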 The experiment is classed as cell-based. The conditions noted are these: antagonistic effect on CXCR7; Tango CXCR7-bla U2OS cells, CXCL12/SDF1-α at its EC80.

pIC50: −log10 of the molar value.

`O=C(N[C@H]1CCN(CC2(F)CC2)C[C@@H]1C(=O)NC1(c2ncccn2)CC1)c1ncc(-c2ccc(F)cc2F)o1` had a pIC50 of 6.40.
